The text below walks through data of patent publication US20070059773A1, “Identification of therapeutic compounds” (priority 2003, published 2007).

Sequences of proteins named here, by UniProt entry; tags and fusion partners are left off. A change or cut given only in a name is not applied to a line headed by its entry.
UniProt P30543, whole entry: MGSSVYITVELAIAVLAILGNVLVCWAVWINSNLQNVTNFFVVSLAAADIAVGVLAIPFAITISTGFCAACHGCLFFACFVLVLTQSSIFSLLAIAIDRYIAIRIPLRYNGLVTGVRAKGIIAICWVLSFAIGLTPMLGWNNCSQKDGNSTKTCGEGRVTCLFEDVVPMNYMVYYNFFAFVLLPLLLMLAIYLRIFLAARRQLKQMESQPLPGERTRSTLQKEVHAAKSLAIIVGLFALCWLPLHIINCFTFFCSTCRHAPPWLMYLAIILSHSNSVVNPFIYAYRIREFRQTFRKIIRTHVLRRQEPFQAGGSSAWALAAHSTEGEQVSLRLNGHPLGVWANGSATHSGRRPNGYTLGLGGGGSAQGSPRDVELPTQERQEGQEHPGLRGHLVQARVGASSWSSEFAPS

The assay deals with rat striatal A2A receptor (Rattus norvegicus, UniProt P30543). The following applies: one affinity state.

Where two headings read alike, the source gives them in different places.

The Ki is the dissociation constant of the complex between target and ligand, obtained from inhibition or displacement. Read a low Ki as tighter binding. For the substance “phenylisopropyladenosine [S-PIA, reference compound]”, the Ki is 271 ± 4.9 nM (pH5.5) and 1710 ± 423 nM (pH 7.4).
The corresponding values for “phenylisopropyladenosine [R-PIA, reference compound]” are 21 ± 1.4 nM and 172 ± 21 nM.
